The conditions of this data set: @185° F.

As for zinc acetate, the “amount dissolved in Example 16 oils” value was 0.08 g/100 g.

The values above are taken from patent US20250041259A1, “TOPICAL COMPOSITIONS FOR REDUCING SCARRING” (Omeza Holdings, Inc., priority 2022, published 2025).
